Chains of the proteins cited; added tags and fusions are not shown.
UniProt P30518, whole entry: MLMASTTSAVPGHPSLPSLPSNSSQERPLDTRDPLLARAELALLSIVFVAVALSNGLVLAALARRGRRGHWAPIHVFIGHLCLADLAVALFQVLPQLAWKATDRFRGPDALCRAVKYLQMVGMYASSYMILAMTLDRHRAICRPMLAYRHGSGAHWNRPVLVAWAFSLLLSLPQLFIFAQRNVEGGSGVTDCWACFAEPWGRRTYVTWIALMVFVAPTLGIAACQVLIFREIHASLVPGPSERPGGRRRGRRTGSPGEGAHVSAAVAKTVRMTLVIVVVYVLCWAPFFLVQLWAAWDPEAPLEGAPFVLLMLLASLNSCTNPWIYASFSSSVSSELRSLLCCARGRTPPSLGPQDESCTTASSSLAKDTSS
UniProt P37288, whole entry: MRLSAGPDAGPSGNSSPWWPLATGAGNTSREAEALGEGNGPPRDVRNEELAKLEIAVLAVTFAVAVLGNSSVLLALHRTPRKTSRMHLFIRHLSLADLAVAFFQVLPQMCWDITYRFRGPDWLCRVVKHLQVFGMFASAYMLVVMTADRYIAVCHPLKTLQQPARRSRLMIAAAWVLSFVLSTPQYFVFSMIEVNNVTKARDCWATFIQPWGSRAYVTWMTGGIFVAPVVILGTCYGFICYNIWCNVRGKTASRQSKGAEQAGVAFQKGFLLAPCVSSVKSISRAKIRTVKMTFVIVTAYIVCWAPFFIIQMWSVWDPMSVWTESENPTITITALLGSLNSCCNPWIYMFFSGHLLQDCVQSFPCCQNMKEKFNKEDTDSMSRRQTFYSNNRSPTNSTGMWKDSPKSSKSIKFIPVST

In US9180120B2, “Substituted N-phenethyltriazoloneacetamides and use thereof” (Bayer Intellectual Property GmbH, priority 2010, dated 2015):

Tests used:
human V2 receptor = human V2 receptor (Homo sapiens (Human), UniProt P30518); experiment: Cellular in vitro assay for determining the vasopressin receptor activity (aequorin luminescence, CHO cells, antagonism of [Arg8]-vasopressin); format: cell-based; settings: cell line transfected with the human V2 receptor; agonist [Arg8]-vasopressin; read-out: IC50 hV2
Text: (§1) • EDTA ethylenediaminetetraacetic acid • DMEM Dulbecco's Modified Eagle Medium • FCS foetal calf serum • HEPES 4-(2-hydroxyethyl)-1-piperazineethanesulphonic acid • SmGM Smooth Muscle Cell Growth Media • Tris-HCl 2-amino-2-(hydroxymethyl)-1,3-propanediol hydrochloride B-1. Cellular in vitro Assay for Determining the Vasopressin Receptor Activity
(§2) The identification of agonists and antagonists of the V1a and V2 vasopressin receptors from humans and rats and also the quantification of the activity of the compounds of the invention takes place using recombinant cell lines. […] In addition, the cells are stably transfected with the human or rat V1a or V2 receptors.
(§3) On the day before the assay, the cells are plated out in culture medium (DMEM, 10% FCS, 2 mM glutamine, 10 mM HEPES) in 384-well microtitre plates and kept in a cell incubator (96% humidity, 5% v/v CO2, 37° C.). On the day of the assay, the culture medium is replaced by a Tyrode solution (140 mM NaCl, 5 mM KCl, 1 mM MgCl2, 2 mM CaCl2, 20 mM glucose, 20 mM HEPES), which additionally contains the cofactor coelenterazine (50 μM), and the microtitre plate is then incubated for a further 3-4 hours. The test substances in various concentrations are placed for 10 to 20 minutes in the wells of the microtitre plate before the agonist [Arg^8]-vasopressin is added, and the resulting light signal is measured immediately in the luminometer.

human V1a receptor = human V1a receptor (Homo sapiens (Human), UniProt P37288); experiment: as above; format: cell-based; settings: cell line transfected with the human V1a receptor; agonist [Arg8]-vasopressin; read-out: IC50 hV1a
Text: as §1, §2, §3

Row | Structure (SMILES) | IC50 (human V2 receptor) [nM] | IC50 (human V1a receptor) [nM]
1 | NC(=O)OCC(CNC(=O)Cn1nc(-c2ccc(Cl)cc2)n(C[C@H](O)C(F)(F)F)c1=O)c1ccccc1Cl (single isomer, unassigned) [Example 6] | 1 | –
2 | CC(C)(C)OC(=O)NC(CNC(=O)Cn1nc(-c2ccc(Cl)cc2)n(C[C@H](O)C(F)(F)F)c1=O)c1cccc(Cl)c1Cl (single isomer, unassigned) [Example 19] | – | 13
